For two molecules, IC50 results are on record in ChEMBL document CHEMBL5360622, “Leucettinibs, a Class of DYRK/CLK Kinase Inhibitors Inspired by the Marine Sponge Natural Product Leucettamine B” (J Med Chem, 2023).

By UniProt entry, the sequences of proteins in these tests, tags left out. Where a name states a change or a piece, a line headed by the entry shows the natural chain unless it says otherwise.
UniProt P49760, whole entry: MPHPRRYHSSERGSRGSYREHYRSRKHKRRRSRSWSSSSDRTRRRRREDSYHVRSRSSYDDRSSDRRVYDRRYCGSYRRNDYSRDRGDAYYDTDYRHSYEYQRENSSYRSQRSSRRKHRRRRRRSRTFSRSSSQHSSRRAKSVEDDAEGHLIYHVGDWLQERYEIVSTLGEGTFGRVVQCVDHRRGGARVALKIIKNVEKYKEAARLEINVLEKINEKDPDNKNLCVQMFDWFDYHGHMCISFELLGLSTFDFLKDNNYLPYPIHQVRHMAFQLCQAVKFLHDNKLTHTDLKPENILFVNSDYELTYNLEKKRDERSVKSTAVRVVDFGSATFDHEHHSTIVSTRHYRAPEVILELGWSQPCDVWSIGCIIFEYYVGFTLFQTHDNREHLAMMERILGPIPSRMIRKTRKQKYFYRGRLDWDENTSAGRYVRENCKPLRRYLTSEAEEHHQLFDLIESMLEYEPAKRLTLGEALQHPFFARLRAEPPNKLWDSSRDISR
UniProt P49759: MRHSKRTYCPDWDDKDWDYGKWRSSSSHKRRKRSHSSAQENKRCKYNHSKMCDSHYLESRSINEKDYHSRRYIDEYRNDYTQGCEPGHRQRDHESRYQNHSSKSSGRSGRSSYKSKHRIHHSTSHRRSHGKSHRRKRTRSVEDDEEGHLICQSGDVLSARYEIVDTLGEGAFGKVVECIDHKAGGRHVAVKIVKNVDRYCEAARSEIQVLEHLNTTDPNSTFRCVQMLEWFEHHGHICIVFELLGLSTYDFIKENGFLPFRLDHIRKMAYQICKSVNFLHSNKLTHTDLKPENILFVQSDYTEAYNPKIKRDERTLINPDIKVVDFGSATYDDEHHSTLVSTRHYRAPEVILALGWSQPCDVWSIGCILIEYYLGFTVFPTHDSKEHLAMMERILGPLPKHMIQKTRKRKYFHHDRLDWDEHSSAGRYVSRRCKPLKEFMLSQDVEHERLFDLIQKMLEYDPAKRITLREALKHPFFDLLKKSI

Test [1] concerns the target Dual specificity protein kinase CLK2 (Homo sapiens, UniProt P49760).
In test [2] the target is Dual specificity protein kinase CLK1 (Homo sapiens, UniProt P49759).

By IC50 is commonly meant the midpoint of a concentration-inhibition curve. As for `O=C1NC(Nc2ccccc2)=N/C1=C\c1ccc2c(c1)OCO2`, the IC50 in test [1] was determined as 130 nM; in test [2], 23 nM. As for `CN1CCC(NC2=N/C(=C\c3ccc4ncsc4c3)C(=O)N2)C1=O` (racemic), in test [1], it took 344 nM to reach half-maximal inhibition (IC50).
